These are literature values, as cited in patent US12246067B2, “Neoantigens and uses thereof” (priority 2018, dated 2025).

The series has as its system humans. As to conditions: more than 25 clinical trials; cited from earlier work.

Consider poly-ICLC, for which the Toxicity profile entry is given as “relatively benign toxicity profile”.
